Experimental data taken from ChEMBL document CHEMBL1777764, “Synthesis and evaluation of 1-(1H-indol-3-yl)ethanamine derivatives as new antibacterial agents” (Bioorg Med Chem, 2011).

Experiments:
[1] = test system: Klebsiella pneumoniae; conditions: ATCC 35657
[2] = test system: Pseudomonas aeruginosa; conditions: CIP 5933
[3] = test system: Acinetobacter baumannii; conditions: ATCC 19606 = CIP 70.34 = JCM 6841
[4] = test system: Enterobacter cloacae; conditions: ATCC 13047
[5] = test system: Serratia marcescens; conditions: CIP 103551

Measured: MIC

GENTAMICIN
0.5 µg/mL: all assays above
